Sequences of proteins named here, by UniProt entry; tags and fusion partners are left off. Residues count along the entry.
UniProt P02745, whole entry, looked up: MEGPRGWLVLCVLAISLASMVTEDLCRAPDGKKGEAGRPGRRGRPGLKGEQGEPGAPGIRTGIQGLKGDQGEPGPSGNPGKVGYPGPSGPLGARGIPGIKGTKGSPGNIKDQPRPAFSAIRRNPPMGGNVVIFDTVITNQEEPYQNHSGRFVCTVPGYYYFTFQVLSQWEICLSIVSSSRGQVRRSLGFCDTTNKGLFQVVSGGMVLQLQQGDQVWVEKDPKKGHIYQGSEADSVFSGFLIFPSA
UniProt P02745, 23-245: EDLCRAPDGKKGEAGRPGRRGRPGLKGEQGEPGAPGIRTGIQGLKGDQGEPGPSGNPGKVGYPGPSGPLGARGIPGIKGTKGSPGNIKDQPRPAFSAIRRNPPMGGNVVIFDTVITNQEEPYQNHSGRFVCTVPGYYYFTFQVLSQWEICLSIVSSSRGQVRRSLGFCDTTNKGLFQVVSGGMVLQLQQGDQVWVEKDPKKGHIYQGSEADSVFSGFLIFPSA
C1 (C1qr2s2), UniProt P02746, whole entry, looked up: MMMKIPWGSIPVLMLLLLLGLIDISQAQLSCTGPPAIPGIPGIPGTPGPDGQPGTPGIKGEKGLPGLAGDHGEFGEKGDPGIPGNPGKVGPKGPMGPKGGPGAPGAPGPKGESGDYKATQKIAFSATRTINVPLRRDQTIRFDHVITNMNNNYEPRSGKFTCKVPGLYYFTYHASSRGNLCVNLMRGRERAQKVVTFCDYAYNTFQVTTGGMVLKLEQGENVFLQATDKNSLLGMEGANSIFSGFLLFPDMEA
C1q, UniProt P02746, 28-253: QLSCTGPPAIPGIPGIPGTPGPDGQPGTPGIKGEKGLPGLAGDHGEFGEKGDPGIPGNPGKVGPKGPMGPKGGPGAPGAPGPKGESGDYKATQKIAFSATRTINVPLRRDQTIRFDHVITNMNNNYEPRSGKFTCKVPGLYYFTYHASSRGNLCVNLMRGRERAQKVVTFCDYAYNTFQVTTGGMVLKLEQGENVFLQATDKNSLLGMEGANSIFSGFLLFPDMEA
C1 (C1qr2s2), UniProt P02747, whole entry, looked up: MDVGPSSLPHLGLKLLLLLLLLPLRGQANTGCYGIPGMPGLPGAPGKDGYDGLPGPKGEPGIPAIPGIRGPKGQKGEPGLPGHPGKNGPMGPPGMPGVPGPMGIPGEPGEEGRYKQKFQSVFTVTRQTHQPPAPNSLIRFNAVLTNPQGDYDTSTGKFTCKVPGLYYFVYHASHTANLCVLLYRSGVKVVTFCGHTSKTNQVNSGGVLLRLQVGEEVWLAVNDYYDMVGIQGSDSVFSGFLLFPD
C1q, UniProt P02747, 29-245: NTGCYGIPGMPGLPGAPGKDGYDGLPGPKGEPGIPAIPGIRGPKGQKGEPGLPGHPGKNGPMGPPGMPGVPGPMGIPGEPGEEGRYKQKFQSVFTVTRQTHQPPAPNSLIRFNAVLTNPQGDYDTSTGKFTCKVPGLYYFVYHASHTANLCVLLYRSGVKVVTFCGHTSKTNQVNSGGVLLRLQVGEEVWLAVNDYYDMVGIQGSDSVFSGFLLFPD

According to article doi:10.1101/2024.03.26.586731:

Columns and labels:
Assay in all cases: quartz crystal microbalance
[1] = target: IgG3-DNP-E430G (human)
[2] = target: IgG1-DNP-E430G (human)
[3] = target: IgG2-DNP-RGY (human)
[4] = target: IgG3-DNP-RGY (human)
[5] = target: IgG4-DNP-RGY (human)
[6] = target: IgG1-DNP-RGY (human)

Row | fold C1 recruitment efficiency against IgG3-DNP [1] | IgGs/C1 ratio (average IgGs needed to stably bind a single C1) [2] | Kd [3] | Kd [4] | Kd [5] | Kd [6] | Substance
1 | 2.5 times | 8 IgGs/C1 | – | – | – | – | C1 (C1qr2s2) (from UniProt P02745 23-245; P02746 28-253; P02747 29-245) (complex)
2 | – | – | 20 µM | 4.1 µM | 11.3 µM | 8 µM | C1q (from UniProt P02745 23-245; P02746 28-253; P02747 29-245) (complex)
